According to PubChem BioAssay (NCI):
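Five concentrations, 48 hours, 96-well plates. Abbreviation: GI50, concentration required for 50% inhibition of growth. TGI denotes the concentration required for complete inhibition of growth.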

Legend:
Experiment in all cases: NCI-60 cell line screen, 48 h
[1] = tested on: A498 renal
[2] = tested on: EKVX NSCLC
[3] = tested on: HCC-2998 colon
[4] = tested on: HOP-92 NSCLC
[5] = tested on: M14 melanoma
[6] = tested on: NCI-H322M lung
[7] = tested on: NCI-H522 lung
[8] = tested on: RXF 393 renal
[9] = tested on: SK-MEL-2 melanoma
[10] = tested on: T-47D breast
[11] = tested on: UACC-257 melanoma

CCOP1(=O)N=C(NC#N)N(C)C1(C)C (stereo not drawn)
GI50 [1]: > 100 µM
TGI [1]: > 100 µM
TGI [2]: > 100 µM
GI50 [3]: > 100 µM
TGI [3]: > 100 µM
GI50 [4]: > 100 µM
TGI [4]: > 100 µM
GI50 [5]: > 100 µM
TGI [5]: > 100 µM
GI50 [6]: > 100 µM
TGI [6]: > 100 µM
GI50 [7]: > 100 µM
TGI [7]: > 100 µM
TGI [8]: > 100 µM
TGI [9]: > 100 µM
GI50 [10]: > 100 µM
TGI [10]: > 100 µM
TGI [11]: > 100 µM
